Key:
[1] = tested on: SoHPPD H306K (short); assay: In vitro HPPD activity assay; format: biochemical, Scenedesmus obliquus; conditions: normalized on Arabidopsis wild-type HPPD (SEQ ID NO:42)
Description: (§1) HPPD produces homogentisic acid and CO2 from 4-hydroxyphenylpyruvate (4-HPP) and O2. The activity assay for HPPD is based on the analysis of homogentisic acid by reversed phase HPLC.
(§2) The assay mixture can contain 150 mM potassium phosphate buffer pH 7.0, 50 mM L-ascorbic acid, 100 μM Catalase (Sigma-Aldrich), 1 μM FeSO4 and 0.2 units of purified mutated HPPD enzyme in a total volume of 505 μl. 1 unit is defined as the amount of enzyme that is required to produce 1 nmol of HGA per minute at 20° C.
(§3) After a preincubation of 30 min the reaction is started by adding 4-HPP to a final concentration of 0.05 mM. The reaction is allowed to proceed for 45 min at room temperature. The reaction is stopped by the addition of 50 μl of 4.5 M phosphoric acid. The sample is filtered using a […] pore size PVDF filtration device.
(§4) 5 μl of the cleared sample is analyzed on an UPLC HSS T3 column (particle size 1.8 μm, dimensions 2.1×50 mm; Waters) by isocratic elution using 90% 20 mM NaH2PO4 pH 2.2, 10% methanol (v/v).
(§5) HGA is detected electrochemically at 750 mV (mode: DC; polarity: positive) and quantified by integrating peak areas (Empower software; Waters).
(§6) Inhibitors are dissolved in DMSO (dimethylsulfoxide) to a concentration of 0.5 mM. From this stock solution serial five-fold dilutions are prepared in DMSO, which are used in the assay. The respective inhibitor solution accounts for 1% of the assay volume. Thus, final inhibitor concentrations range from 5 μM to 320 pM, respectively. Activities are normalized by setting the uninhibited enzyme activity to 100%. IC50 values are calculated using non-linear regression.
(§7) Using methods which are described in the above examples or well known in the art, purified, recombinant mutated HPPD enzymes are characterized with respect to their kinetic properties and sensitivity towards HPPD inhibiting herbicides. Apparent michaelis constants (Km) and maximal reaction velocities (Vmax) are calculated by non-linear regression with the software GraphPad Prism 5 (GraphPad Software, La Jolla, USA) using a substrate inhibition model. Apparent kcat values are calculated from Vmax assuming 100% purity of the enzyme preparation. Weighted means (by standard error) of Km and IC50 values are calculated from at least three independent experiments. The Cheng-Prusoff equation for competitive inhibition (Cheng, Y. C.; Prusoff, W. H. Biochem Pharmacol 1973, 22, 3099-3108) is used to calculate dissociation constants (Ki).
(§8) Field performance of the HPPD enzyme, which is used as a herbicide tolerance trait may depend not only on its lack of sensitivity towards HPPD inhibiting herbicides but also on its activity. To assess the potential performance of a herbicide tolerance trait a tolerance index (TI) is calculated using the following formula: […]
(§9) Easy comparison and ranking of each trait is enabled by normalizing tolerance indexes on Arabidopsis wild-type HPPD.

[2] = tested on: SoHPPD A318R, L350M; assay: In vitro HPPD activity assay; format: biochemical, Scenedesmus obliquus; conditions: normalized on Arabidopsis wild-type HPPD (SEQ ID NO:42)
Description: as §1, §2, §3, §4, §5, §6, §7, §8, §9

[3] = tested on: SoHPPD R327G, E421D (short); assay: In vitro HPPD activity assay; format: biochemical, Scenedesmus obliquus; conditions: normalized on Arabidopsis wild-type HPPD (SEQ ID NO:42)
Description: as §1, §2, §3, §4, §5, §6, §7, §8, §9

[4] = tested on: SoHPPD L367V, I375L (short); assay: In vitro HPPD activity assay; format: biochemical, Scenedesmus obliquus; conditions: normalized on Arabidopsis wild-type HPPD (SEQ ID NO:42)
Description: as §1, §2, §3, §4, §5, §6, §7, §8, §9

[5] = tested on: SoHPPD Q317H, A318G, E345Q; assay: In vitro HPPD activity assay; format: biochemical, Scenedesmus obliquus; conditions: normalized on Arabidopsis wild-type HPPD (SEQ ID NO:42)
Description: as §1, §2, §3, §4, §5, §6, §7, §8, §9

[6] = tested on: SoHPPD Q317H (short); assay: In vitro HPPD activity assay; format: biochemical, Scenedesmus obliquus; conditions: normalized on Arabidopsis wild-type HPPD (SEQ ID NO:42)
Description: as §1, §2, §3, §4, §5, §6, §7, §8, §9

[7] = tested on: SoHPPD A318R, L350M (short); assay: In vitro HPPD activity assay; format: biochemical, Scenedesmus obliquus; conditions: normalized on Arabidopsis wild-type HPPD (SEQ ID NO:42)
Description: as §1, §2, §3, §4, §5, §6, §7, §8, §9

[8] = tested on: SoHPPD E345Q, K326Q (short); assay: In vitro HPPD activity assay; format: biochemical, Scenedesmus obliquus; conditions: normalized on Arabidopsis wild-type HPPD (SEQ ID NO:42)
Description: as §1, §2, §3, §4, §5, §6, §7, §8, §9

[9] = tested on: SoHPPD E379Q (short); assay: In vitro HPPD activity assay; format: biochemical, Scenedesmus obliquus; conditions: normalized on Arabidopsis wild-type HPPD (SEQ ID NO:42)
Description: as §1, §2, §3, §4, §5, §6, §7, §8, §9

[10] = tested on: SoHPPD L367V, I375L; assay: In vitro HPPD activity assay; format: biochemical, Scenedesmus obliquus; conditions: normalized on Arabidopsis wild-type HPPD (SEQ ID NO:42)
Description: as §1, §2, §3, §4, §5, §6, §7, §8, §9

[11] = tested on: SoHPPD I455V; assay: In vitro HPPD activity assay; format: biochemical, Scenedesmus obliquus; conditions: normalized on Arabidopsis wild-type HPPD (SEQ ID NO:42)
Description: as §1, §2, §3, §4, §5, §6, §7, §8, §9

[12] = tested on: SoHPPD A318P, A319P (short); assay: In vitro HPPD activity assay; format: biochemical, Scenedesmus obliquus; conditions: normalized on Arabidopsis wild-type HPPD (SEQ ID NO:42)
Description: as §1, §2, §3, §4, §5, §6, §7, §8, §9

[13] = tested on: SoHPPD I419V (short); assay: In vitro HPPD activity assay; format: biochemical, Scenedesmus obliquus; conditions: normalized on Arabidopsis wild-type HPPD (SEQ ID NO:42)
Description: as §1, §2, §3, §4, §5, §6, §7, §8, §9

[14] = molecular target: T1, Arabidopsis HPPD (Seq ID: 42) (Arabidopsis thaliana, UniProt P93836); assay: In vitro HPPD activity assay (homogentisic acid by HPLC); format: biochemical; conditions: for TI (normalized tolerance index): benchmark enzyme, normalized on Arabidopsis wild-type HPPD; for TI (tolerance index): not normalized
T1 construct: His6; made in house; host or cells: E. coli BL21 (DE3)
T1 sequence (P93836 1-445): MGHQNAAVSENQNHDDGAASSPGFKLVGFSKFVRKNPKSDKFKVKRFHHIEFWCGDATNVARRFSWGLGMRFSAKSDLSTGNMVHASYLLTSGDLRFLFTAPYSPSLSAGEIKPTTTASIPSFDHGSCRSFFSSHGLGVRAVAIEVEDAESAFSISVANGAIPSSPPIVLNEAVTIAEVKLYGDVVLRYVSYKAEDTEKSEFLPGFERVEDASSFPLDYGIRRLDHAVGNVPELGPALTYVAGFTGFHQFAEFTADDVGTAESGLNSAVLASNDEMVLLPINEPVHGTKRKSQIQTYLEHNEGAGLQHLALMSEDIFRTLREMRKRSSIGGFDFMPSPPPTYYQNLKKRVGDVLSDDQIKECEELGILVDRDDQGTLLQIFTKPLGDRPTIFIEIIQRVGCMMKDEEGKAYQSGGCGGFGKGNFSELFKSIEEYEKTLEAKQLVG
Description: as §1, §2, §3, §4, §5
as §6, with “Thus, final inhibitor concentrations range from 5 μM to 320 pM, respectively.” left out
as §7, with “Apparent kcat values are calculated from Vmax assuming 100% purity of the enzyme preparation.” left out, “experiments.” for “experiments. The Cheng-Prusoff equation for competitive inhibition (Cheng, Y. C.; Prusoff, W. H. Biochem Pharmacol 1973, 22, 3099-3108) is used to calculate dissociation constants (Ki).”
as §8, §9

SMILES	TI (normalized tolerance index) [1]	TI (normalized tolerance index) [2]	TI (normalized tolerance index) [3]	TI (normalized tolerance index) [4]	TI (normalized tolerance index) [5]	TI (normalized tolerance index) [6]	TI (normalized tolerance index) [7]	TI (normalized tolerance index) [8]	TI (normalized tolerance index) [9]	TI (normalized tolerance index) [10]	TI (normalized tolerance index) [11]	TI (normalized tolerance index) [12]	TI (normalized tolerance index) [13]	TI (normalized tolerance index) [14]	TI (tolerance index) [14]
Cc1c(C(=O)c2cnn(C)c2O)ccc(S(C)(=O)=O)c1C1=NOCC1 [Inhibitor 1, [3-(4,5-dihydroisoxazol-3-yl)-2-methyl-4-methylsulfonyl-phenyl]-(5-hydroxy-1-methyl-pyrazol-4-yl)methanone]	1.6	3.8	4.0	3.6	1.9	6.1	12.9	1.8	0.7	1.2	3.3	4.6	0.8	1.0	0.95E−3
CN(c1c(Cl)ccc(C2=C(O)c3ncccc3C(C)(C)S2(=O)=O)c1Cl)S(C)(=O)=O [Inhibitor 3, N-[2,6-dichloro-3-(8-hydroxy-5,5-dimethyl-6,6-dioxo-thiopyrano[4,3-b]pyridin-7-yl)phenyl]-N-methyl-methanesulfonamide]	0.8	1.0	1.2	1.0	1.0	2.0	2.5	0.5	0.2	0.5	1.4	2.0	0.9	1.0	23.8E−3
Cc1nonc1NC(=O)c1ccc(S(C)(=O)=O)c(S(C)(=O)=O)c1C [Inhibitor 6, 2-methyl-N-(4-methyl-1,2,5-oxadiazol-3-yl)-3,4-bis(methylsulfonyl)benzamide]	1.2	1.3	2.7	2.1	0.8	4.1	8.6	1.1	0.5	0.6	2.1	3.3	1.5	1.0	–
CSc1c(Cl)cc(F)c(C(=O)Nc2nnnn2C)c1Cl [Inhibitor 7, 2,4-dichloro-6-fluoro-3-methylsulfanyl-N-(1-methyltetrazol-5-yl)benzamide]	0.2	0.1	0.5	0.4	0.1	1.4	0.7	0.2	0.2	0.0	0.3	0.6	0.2	1.0	–

Reference: US11248234B2, “Herbicide-resistant hydroxyphenylpyruvate dioxygenases” (BASF SE, priority 2015, dated 2022)
